# Test results taken from PMC5392334, “Discovery and characterization of a novel irreversible EGFR mutants selective and potent kinase inhibitor CHMFL-EGFR-26 with a distinct binding mode” (Oncotarget, 2017).
# Tests used:
# [1] = test system: EGFR Y1068 phosphorylation in BaF3-FL-EGFR-L858R -T790M cells; settings: BaF3-TEL-EGFR versus BaF3-FL-EGFR-L858R -T790M
# [2] = test system: EGFR kinase wt/mutants expressing BaF3 isogenic cell lines; settings: all sensitive mutants, BaF3 (GI50)
smiles,measurement,setting,value
C=CC(=O)N1CCC[C@@H](n2nc(-c3ccc(OCc4cccc(C)n4)c(Cl)c3)c3c(N)ncnc32)C1 [CHMFL-EGFR-26],selectivity between the EGFR wt and EGFRL858R/T790M (Y1068 phosphorylation EC50),[1],15 fold
same,loss of activity when C797S mutant was introduced,[2],50-10000 folds
